From patent US11576947B2, “Oral composition and method” (Kunming Lanchie Dental Hospital, LTD, priority 2019, dated 2023)

Legend:
[1] = System stability evaluation: compatibility of ingredients with peroxide source and the system; conditions: summary of testing of Tables 2 and 3
[2] = Stability test in propylene glycol (Brilliant Blue color dissipation); format: physicochemical; parameters: key: ++++: no color dissipation; +++: slightly dissipation; ++: obvious dissipation; +: totally dissipated; conditions: 2.76% carbamide peroxide, 0.002% Brilliant Blue, compound amount 1%, 60 days, room temperature
[3] = Stability test in aqueous system (Brilliant Blue color dissipation); format: physicochemical; parameters: key: ++++: no color dissipation; +++: slightly dissipation; ++: obvious dissipation; +: totally dissipated; conditions: water, 2.76% carbamide peroxide, 0.002% Brilliant Blue; compound amount 1%; 60 days, room temperature

Substance | Effect on peroxide and system stability [1] | Color (color fading grade) [2] | Color (color fading grade) [3]
Natural calcium carbonate | activate the peroxide and make the system unstable | – | –
N-Cocoyl-L-glutamic acid monotriethanolamine [Amisoft CT-12S] | – | + | +
